From patent US5228957A, “Separation of methyl T-butyl ether from close boiling C5 hydrocarbons by extractive distillation” (priority 1993, dated 1993)
Like-named read-outs stand apart in the source and are kept apart here.

Legend:
[1] = Extractive distillation agent separating methyl t-butyl ether from cyclopentane (vapor-liquid equilibrium still); assay type: physicochemical; conditions: cyclopentane to methyl t-butyl ether, with agent
From the text: The data in Tables 2-6 was obtained in a vapor-liquid equilibrium still.

[2] = Extractive distillation agent separating methyl t-butyl ether from n-pentane-cyclopentane mixtures (vapor-liquid equilibrium still); assay type: physicochemical

| Compound | Relative Volatility [1] | Relative Volatility Pnt/MTBE [2] | Relative Volatility CyP/MTBE ([2]; cyclopentane to methyl t-butyl ether, n-pentane-cyclopentane mixture, with agent) | Relative Volatility CyP/MTBE [2] | Relative Volatility Pnt/MTBE ([2]; n-pentane to methyl t-butyl ether, n-pentane-cyclopentane mixture, with agent) |
| --- | --- | --- | --- | --- | --- |
| N#CCCCCC#N [Adiponitrile] | 2.9 | 1.4 | 3.9 |  |  |
| COC(=O)c1ccccc1 [Methyl benzoate] |  |  |  | 1.6 | 1.8 |
